{"source": "patent US8772330B2", "about": "“Inhibitor(s) of transporters or uptake of monoaminergic neurotransmitters” (State of Oregon acting by and through the State Board of …, priority 2009, dated 2014)", "key": {"[1]": {"target": "T1, dopamine (DA) transporter (Homo sapiens, UniProt Q01959)", "assay": "biochemical"}, "[2]": {"target": "T1, dopamine (DA) transporter", "settings": "read-out: Dopamine (DA) Ki; Table 4"}, "[3]": {"settings": "IC50, Dopamine (DA) transporter, Table 1, racemic mixtures, blind tested"}, "[4]": {"settings": "Ki, Dopamine (DA) transporter, Table 1, ± S.E.M."}}, "note": "Where a name gives a salt, the structure may show the parent alone. Read-outs that look alike come from different tables or passages of the source."}
{"smiles": "CNC[C@@H]1C[C@]1(Oc1cccc2ccccc12)c1cccs1", "note": "(racemic) [DWJW0002, (E)-N-Methyl-[2-(naphthalen-1-yloxy)-2-(thiophen-2-yl)cyclopropyl)methanamine Hydrochloride]", "values": [{"measurement": "IC50", "setting": "[1]; Dopamine (DA) IC50, Table 4", "value": 507, "unit": "nM"}, {"measurement": "Ki", "setting": "[1]; Dopamine (DA) Ki, Table 4", "value": 416, "unit": "nM"}, {"measurement": "IC50", "setting": "[1]; [3]", "value": 147, "unit": "nM"}, {"measurement": "Ki", "setting": "[1]; [4]", "value": "586 ± 120", "unit": "nM"}]}
{"smiles": "CNCC1CC1(Oc1cccc2ccccc12)c1cccs1", "note": "(racemic) [DWJW0003, (Z)-N-Methyl-[2-(naphthalen-1-yloxy)-2-(thiophen-2-yl)cyclopropyl]methanamine Hydrochloride]", "values": [{"measurement": "Ki", "setting": "[1]; Affinity (Ki), Dopamine (DA) transporter, Table 2, radioligand binding, NovaScreen, ± S.E.M.", "value": 283, "unit": "nM"}, {"measurement": "IC50", "setting": "[1]; Dopamine (DA) IC50, Table 4", "value": 338, "unit": "nM"}, {"measurement": "Ki", "setting": "[1]; Dopamine (DA) Ki, Table 4", "value": 275, "unit": "nM"}, {"measurement": "IC50", "setting": "[1]; [3]", "value": 71.7, "unit": "nM"}, {"measurement": "Ki", "setting": "[1]; [4]", "value": "283 ± 5.3", "unit": "nM"}]}
{"smiles": "CNC[C@@H]1C[C@]1(Oc1cccc2ccccc12)c1cccs1", "note": "[(+)−30]", "values": [{"measurement": "Ki", "setting": "[2]", "value": 913, "unit": "nM"}, {"measurement": "IC50", "setting": "[1]; Dopamine (DA) IC50, Table 4", "value": 1120, "unit": "nM"}]}
{"smiles": "CNC[C@H]1C[C@@]1(Oc1cccc2ccccc12)c1cccs1", "note": "[(−)−30]", "values": [{"measurement": "Ki", "setting": "[2]", "value": 790, "unit": "nM"}, {"measurement": "IC50", "setting": "[1]; Dopamine (DA) IC50, Table 4", "value": 963, "unit": "nM"}]}
{"smiles": "CNC[C@H]1C[C@]1(Oc1cccc2ccccc12)c1cccs1", "note": "[(−)−32]", "values": [{"measurement": "IC50", "setting": "[1]; Dopamine (DA) IC50, Table 4", "value": 2070, "unit": "nM"}, {"measurement": "Ki", "setting": "[1]; Dopamine (DA) Ki, Table 4", "value": 1620, "unit": "nM"}]}
